Yeast mating assay B: variants of the scFv Ab-14

All variants were tested on one target, the spike HR2 peptide PDVDLGDISGINAS (SARS-CoV-2).

Parent: Ab-14, a human scFv built as VH, a (GGGGS)3 linker, VL. Only the CDRs of the light chain vary.
VH: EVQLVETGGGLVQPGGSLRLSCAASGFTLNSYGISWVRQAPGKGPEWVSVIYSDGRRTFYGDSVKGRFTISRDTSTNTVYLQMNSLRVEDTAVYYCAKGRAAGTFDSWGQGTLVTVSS
VL: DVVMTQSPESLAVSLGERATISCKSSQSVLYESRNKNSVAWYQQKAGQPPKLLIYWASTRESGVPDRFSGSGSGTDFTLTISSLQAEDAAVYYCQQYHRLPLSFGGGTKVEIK

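The parent was found by panning a naive human phage display library on the peptide. This is the validation round: designs drawn from the data on random variants, tested in the same kind of assay. Several design methods are mixed in this list. The assay is AlphaSeq: two haploid yeast populations carry antibody and antigen on their surface. Pairs that bind mate more often; barcode pairs of the diploids are counted by sequencing. Read counts were normalised to the haploid input and turned into Kd by a linear fit to BCL2-family pairs of known affinity, for each replicate. There are six technical replicates.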

Each variant is given by its three light chain CDRs, as the data file delimits them; those of the parent are KSSQSVLYESRNKNSVA, WASTRES, QQYHRLPLS. Variants here have more than six changes. Each Kd is an estimate from the mating assay, the geometric mean of the replicates in which the pair was seen; lower is stronger. "nd" means that the variant was in the library but no mating with the target was seen in any replicate; the authors take this as a sign of poor binding, and no number exists. The authors averaged sequences with at least three values out of six and counted those with two or fewer as poor binders.

For MVTQMAMSGMTNKRSVA, NAETREH, QQYNRLPLI, the assay gave 1.8 nM (6 of 6 replicates; controls 1 of 18).
For MMTQLTYMGSRARNAVA, QAETRVN, QQYHHLPLF, the assay gave 6.2 nM (6 of 6 replicates; controls 1 of 18).
For KLGGEQQNSTYEKDNVA, DVNTTYE, QHYSRLPLT, the assay gave 450 nM (2 of 6 replicates; controls 1 of 18).
For TIGAQLMYGMRNRSNVA, EVSQRLN, QQYDRLPLF, the assay gave 230 nM (6 of 6 replicates; controls 2 of 18).
For MISQLFNMGQFAINSVA, QASTRNE, QQYDRLPLI, the assay gave 44 nM (6 of 6 replicates; controls 2 of 18).
For MIFYGQERDIAHESSIA, NDMARVK, QQYARLPLS, the assay gave 140 nM (6 of 6 replicates; controls 0 of 18).
For TLGDVTMQLSRNKNSVA, DASTSED, QQYDRLPLS, the assay gave 3.2 nM (6 of 6 replicates; controls 0 of 18).
For KMSQSQEYESRNINSVA, NASTRLT, QQYHRLPLS, the assay gave 830 pM (6 of 6 replicates; controls 0 of 18).
For KISSMSTIESIMHNSVA, QTSTREN, QQYDRLPLS, the assay gave 5.8 nM (6 of 6 replicates; controls 1 of 18).
For HVSGLYTDESVNWYNIA, ETSHVEM, QQYERLPLI, the assay gave 5.0 nM (6 of 6 replicates; controls 1 of 18).
For MLSMMHAMGYNKESSIA, DAEALNS, QQYNELPLS, the assay gave 280 nM (1 of 6 replicates; controls 0 of 18).
For KVSDSAAFLSRNVNSVA, DNSTRGS, QQYHRLPLS, the assay gave 6.2 nM (6 of 6 replicates; controls 1 of 18).
For KMSQLNLYEQRNFNSVA, NASYRES, QQYHRLPLS, the assay gave 1.3 nM (6 of 6 replicates; controls 0 of 18).
For KLSQFVGYESRNKSRVA, DNSTRES, QQYDRLPLS, the assay gave 3.5 µM (2 of 6 replicates; controls 1 of 18).
For NIGMTLNMLEHKQNNVA, DLVEREN, QQYFRLPLS, the assay gave 2.4 nM (6 of 6 replicates; controls 1 of 18).
For QLNHYKHETMAKWQNIA, DMTIRED, QQYAHLPLA, the assay gave 4.9 nM (6 of 6 replicates; controls 1 of 18).
For MISNVMNTLTRYGNNVA, DLQEREE, QQYFRLPLS, the assay gave 4.9 nM (6 of 6 replicates; controls 0 of 18).
For NVHALDAISSEFQNSIA, DQECRDA, QQYFRLPLS, the assay gave 22 nM (6 of 6 replicates; controls 0 of 18).
For MISQIYNMGQFAINSVA, QASERSN, QQYDRLPLT, the assay gave 3.9 nM (6 of 6 replicates; controls 0 of 18).
For KLGAWMYWQTEAKYAIA, QDEMRVH, QQYDRLPLT, the assay gave 76 nM (3 of 6 replicates; controls 0 of 18).
For KLSMQYRYESENKNSIA, ELVTRMS, QQYHRLPLS, the assay gave 8.1 nM (6 of 6 replicates; controls 0 of 18).
For KLSQLFYKESINKNNVA, EMTTRMS, QQYDRLPLS, the assay gave 1.1 nM (6 of 6 replicates; controls 0 of 18).
For TISNVMNTLTRHGNNVA, DLTERED, QQYFRLPLS, the assay gave 1.1 nM (6 of 6 replicates; controls 0 of 18).
For KFQGMVMMGDRNKNSVA, WASTRLS, QQYHRLPLS, the assay gave 290 nM (2 of 6 replicates; controls 1 of 18).
For KLREVQHLETKQRDNVA, DNDTREY, QDYYRLPLS, the assay gave nd (0 of 6 replicates; controls 0 of 18).
For IVSELFLWGLHAKNSIA, EAEMRTN, QQYDRLPLF, the assay gave 34 nM (6 of 6 replicates; controls 2 of 18).
For KMREDFYHGQVEMSAIA, DGEHLNM, QQYSHLPLS, the assay gave 4.1 nM (6 of 6 replicates; controls 2 of 18).
For KLSASVLYGKRNKNSVA, QASQRCS, QQYHRLPLS, the assay gave 74 nM (6 of 6 replicates; controls 2 of 18).
For IIEQGQWEQEQNQNAMA, NGETRMR, QQYYKLPLV, the assay gave 12 nM (6 of 6 replicates; controls 0 of 18).
For KLSMITNHMQQSKNNVA, EMVTREN, QQYERLPLS, the assay gave 1.3 nM (6 of 6 replicates; controls 0 of 18).
For KIGHMVTGTSRKGNSVA, QAETRLD, QQYHRLPLM, the assay gave 4.0 nM (6 of 6 replicates; controls 0 of 18).
For QINMEMYHDLDDAQNVA, DAMTEVK, QQYNRLPLS, the assay gave 14 nM (6 of 6 replicates; controls 1 of 18).
For RIQMGDLEGRTAWNNIA, NMEESYR, QQYVRLPLY, the assay gave 2.3 nM (6 of 6 replicates; controls 0 of 18).
For MISGSVMSESRLKNSVA, QTTMRES, QQYDRLPLS, the assay gave 62 nM (5 of 6 replicates; controls 0 of 18).
For TLGDVTRMESNKKNSIA, DMSNRAD, QQYHRLPIS, the assay gave 1.0 nM (6 of 6 replicates; controls 0 of 18).
For MFSQLTYTGSRARNAVA, QASTREN, QQYHHLPLS, the assay gave 7.7 nM (6 of 6 replicates; controls 1 of 18).
For NVHALDAISSEFQNSVA, DQECRDA, QQYFRLPLS, the assay gave 8.9 nM (6 of 6 replicates; controls 0 of 18).
For IVSQLMLWGYHAKNSIA, EAQTRLN, QQYDRLPLI, the assay gave nd (0 of 6 replicates; controls 0 of 18).
For YVSGDLAEGWNQQEAVA, HVSYKED, QQYYKLPLS, the assay gave 26 nM (1 of 6 replicates; controls 0 of 18).
For KQSMSVMMGDRNKNSVA, SAHKRES, QQYHRLPLS, the assay gave 120 nM (4 of 6 replicates; controls 3 of 18).

Again, the first 2 entries without any signal:

CDR-L1,CDR-L2,CDR-L3,apparent Kd,detected,empty controls
KLREVQHLETKQRDNVA,DNDTREY,QDYYRLPLS,nd,0/6,0/18
IVSQLMLWGYHAKNSIA,EAQTRLN,QQYDRLPLI,nd,0/6,0/18

Nonspecific signal, from three strains lacking the peptide, appeared in 4% of pairings of all light chain designs, centred on 430 nM (5% of these signals below 38 nM); values are not corrected for it. The control count says in how many pairings with the empty strains this scFv gave a signal. Values of this round are not directly comparable with the first-round values of the same sequences.

The measurements come from Li et al. 2023 (doi:10.1038/s41467-023-39022-2) through the FLAb antibody collection.